Properties, as collected for the OPERA models

From the experimental data distributed with OPERA 2.9.

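These are experimental values that the OPERA curators gathered from public databases to train and test their QSAR models. The files give a single number for a compound and property, which may rest on several reports. Method, purity and exact conditions of the single measurements are not given. Where a salt, mixture or single isomer is drawn, the source does not say that exactly this form was tested. Unmarked limits or estimates from the upstream databases cannot be ruled out.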

The melting point is given in degrees Celsius.
The boiling point refers to atmospheric pressure (760 mmHg), by the definition of the set.
logP is the log10 of the octanol-water partition coefficient; higher is more lipophilic.
Solubility in water is on a log10 molar scale (set defined at 25 °C).
Vapor pressure is log10 of mmHg; the set covers 15 to 30 °C, mostly 20 to 25 °C.
The unbound fraction in human plasma runs from 0 (all bound) to 1 (all free).
Intrinsic clearance (human, µL/min per 10^6 hepatocytes): higher is faster turnover, and 0 stands for none detected.

C[C@@H]1O[C@@H](O[C@@H]2[C@@H](Oc3cc(O)c(C(=O)CCc4ccc(O)cc4)c(O)c3)O[C@@H](CO)[C@H](O)[C@H]2O)[C@H](O)[C@H](O)[C@H]1O has logP 0.932 and log solubility -3.072 (log10 mol/L). For CC(=O)OC1CC(C)OC(C)O1 (centres undefined) [Dimethoxane] the data give mp 0 °C and bp 186.1 °C and Clint 863 µL/min/10^6 cells. The entry for O=[N+]([O-])c1ccc(S(=O)(=O)Cl)cc1 [Benzenesulfonyl chloride, 4-nitro-] lists logP 2.1 and log VP -3.99 (log10 mmHg). CCCCCCCCCCCCOC(=O)CCCCCCCC [Dodecyl nonan-1-oate] has mp 15.2 °C and log solubility -8.128 (log10 mol/L).

CCCCOc1ccc(C2CCC(CCC)CC2)c(F)c1F (centres undefined) [1-Butoxy-2,3-difluoro-4-(4-propylcyclohexyl)benzene] has log solubility -6.811 (log10 mol/L) and log VP -5.23 (log10 mmHg). COc1cc(C#N)ccc1C=O [4-Formyl-3-methoxybenzonitrile] is reported with mp 113 °C and logP 1.42 and log solubility -2.719 (log10 mol/L) and log VP -4.543 (log10 mmHg). For O=P(O)(O)C(O)(Cn1ccnc1)P(=O)(O)O [Zoledronate] the data give logP -4.2 and log solubility -1.92 (log10 mol/L). The entry for Cc1cc(C)cc(C(=O)Cl)c1 [Benzoyl chloride, 3,5-dimethyl-] lists mp 4 °C and log solubility -3.329 (log10 mol/L) and log VP -1.409 (log10 mmHg).

C=C(C)C(=O)OCCOP(=O)([O-])OCC[N+](C)(C)C is reported with mp 140.8 °C and logP -1.76. Cc1nc(C)n(C)c1C [1,2,4,5-Tetramethyl-1H-imidazole] has mp 147.1 °C and logP 2.58 and log VP -0.824 (log10 mmHg). For O=C(NCc1ncc(C(F)(F)F)cc1Cl)c1c(Cl)cccc1Cl [Fluopicolide] the data give log solubility -5.14 (log10 mol/L) and log VP -8.433 (log10 mmHg). Listed for CCC(C)(C)c1ccccc1O [Phenol, 2-(1,1-dimethylpropyl)-]: logP 4 and log solubility -2.491 (log10 mol/L) and log VP -1.426 (log10 mmHg).

For OCc1cncs1 [5-Hydroxymethylthiazole] the data give logP -0.17 and log VP -1.846 (log10 mmHg). The entry for O=[N+]([O-])c1ccc(N=Nc2c(O)ccc3ccccc23)c([N+](=O)[O-])c1 [C.I. Pigment Orange 5] lists logP 2.45 and log solubility -7.73 (log10 mol/L). For CCCCCCCCOC(=O)CCCCCCC [Octanoic acid, octyl ester] the data give logP 6.51 and log solubility -6.71 (log10 mol/L). The entry for Nc1c(S(=O)(=O)[O-])cc(Nc2ccccc2)c2c1C(=O)c1ccccc1C2=O.[Na+] [Acid Blue 25] lists logP -0.09 and log solubility -2.174 (log10 mol/L).

For C=C(C)C(=O)OCCOc1ccc(C(=O)c2ccccc2)c(O)c1 [2-(4-Benzoyl-3-hydroxyphenoxy)ethyl 2-methylprop-2-enoate] the data give mp 89 °C and logP 3.7. For CCOC(=O)C(=CC=Cc1ccccc1)NC=O [Ethyl 2-formamido-5-phenylpenta-2,4-dienoate] the data give logP 2.91 and log solubility -3.348 (log10 mol/L). CN(C)C(=O)C1(N2CCCCC2)CCN(CC[C@@]2(c3ccc(Cl)c(Cl)c3)CN(C(=O)c3ccccc3)CCO2)CC1.Cl has plasma fu 0.0127 and Clint 13.6 µL/min/10^6 cells.